Data: patent US12440550B2 (priority 2015, dated 2025)

Conditions: mouse, in vivo

For “poly(Maleic Anhydride-Alt-1-Octadecene) substituted with 3-(Dimethylamino) Propylamine [Formulation F16]”, the “reduction of serum transaminases with respect to unformulated vaccine” value was 40% and the tolerability was “well tolerated”.
